## Binding of CDR-mutated scFvs to a peptide of the spike HR2 region

Target: peptide PDVDLGDISGINAS, taken from heptad repeat 2 (HR2) of SARS-CoV-2 spike.

Each scFv is VH, a (GGGGS)3 linker, VL, as in the parent Ab-14, and differs from it in the CDRs of the light chain only.
VH: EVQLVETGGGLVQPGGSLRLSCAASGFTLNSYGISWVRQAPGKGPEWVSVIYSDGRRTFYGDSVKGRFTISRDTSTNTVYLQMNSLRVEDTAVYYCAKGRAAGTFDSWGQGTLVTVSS
VL: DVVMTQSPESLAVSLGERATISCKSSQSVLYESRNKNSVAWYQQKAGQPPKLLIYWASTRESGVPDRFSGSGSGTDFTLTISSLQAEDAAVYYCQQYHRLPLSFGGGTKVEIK

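The parent was found by panning a naive human phage display library on the peptide. The library (AAYL50) carries one to three amino acid substitutions per variant, with no insertions or deletions. The scFvs were displayed on barcoded MATa yeast, the peptide on MATalpha yeast. Mating (16 h, 30 °C) was followed by selection of diploids and sequencing of their barcodes. Each replicate has its own calibration line, from reference interactions of the BCL2 family. The assay was run in three technical replicates.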

Changes read parent residue, position, new residue, counted from the first residue of the VL shown.
The read-out is the apparent dissociation constant on a log10 scale (nM): the lower, the stronger.
Where no diploid with the target was found in that replicate, the entry reads "nd": below detection, most likely a poor binder, though not proof of it.
Empty control strains, which show no peptide, gave a signal in 18% of pairings with library AAYL50; the median was 4.19 and 95% of these signals were weaker than 2.99. No background was subtracted. For each scFv, signals with the empty controls are counted beside the result, with their mean in brackets.

changes	replicates, log10 nM	empty controls
Q27R K36N S38T	nd 5.28 3.25	3/9 (4.04)
R34I Y97P	nd nd nd	0/9
S26T E32H H98Y	1.47 1.75 1.94	1/9 (3.17)
K36V A40P Q96P	nd 4.71 nd	5/9 (4.17)
R34P K36L V39Y	nd nd 5.89	3/9 (3.47)
S25K K36G T59A	5.63 3.98 4.10	2/9 (3.74)
N37Q A57I T59D	6.43 4.42 5.99	5/9 (4.63)
A40Y R60N Q96E	nd 4.21 4.23	2/9 (3.62)
S25R S26M A40E	nd nd 5.29	2/9 (3.49)
L30I K36M Q96I	1.82 2.23 1.96	0/9
S26V A40D S62A	nd nd nd	2/9 (2.96)
R34P S38G W56K	0.77 1.01 0.98	6/9 (4.71)
S28N	4.43 3.30 nd	4/9 (3.83)
Q27D V39H H98K	4.84 4.26 nd	1/9 (5.04)
V29F	0.45 0.73 0.64	6/9 (5.02)
K36A N37C S58Y	2.53 1.86 2.34	0/9
Y31L S33C V39T	nd 3.81 4.59	6/9 (4.26)
N35D V39G	nd nd nd	0/9
E32C N37A P101G	nd nd nd	0/9
S58N S62N	2.19 2.00 2.54	2/9 (3.99)
N37R W56K Y97L	5.12 nd nd	1/9 (3.88)
W56S E61C S103P	-0.24 0.05 -0.19	2/9 (4.75)
N37I L100E S103V	nd nd nd	1/9 (2.33)
A40K Q95D R99P	nd nd nd	0/9
S25D S38P E61G	4.22 nd nd	2/9 (3.88)
Q27G K36G L102T	1.79 1.85 2.13	3/9 (4.36)
S25Y S26N Y97R	nd nd 3.09	0/9
K24P P101W L102Q	nd nd 4.34	1/9 (3.10)
Q27N Y31A N35V	3.08 2.95 2.51	1/9 (4.01)
Q96C L100V	1.32 1.33 1.32	2/9 (4.37)
K24R S26P W56M	3.88 nd nd	0/9
K24T Y31L E32Q	nd nd 3.27	1/9 (3.81)
Y31M E32A Q95L	nd 3.93 nd	0/9
Q27K S28C T59N	nd nd nd	2/9 (4.12)
K36R A57S H98Q	1.37 1.27 1.24	0/9
S28Q A57W E61G	nd nd nd	2/9 (2.60)
S26E Q27M R34Y	0.69 0.89 0.67	0/9
A40N S62F R99Y	4.94 3.54 4.58	6/9 (4.97)
A40I S58D R60K	5.75 nd nd	0/9
S26P K36H R99S	nd nd nd	0/9
Q27R A40Q S62V	nd nd nd	0/9
N35Q K36V H98Q	2.20 1.95 2.13	2/9 (4.21)

A selection of 3 entries from above:

changes	replicates, log10 nM	empty controls
R34P S38G W56K	0.77 1.01 0.98	6/9 (4.71)
S25R S26M A40E	nd nd 5.29	2/9 (3.49)
Q27R K36N S38T	nd 5.28 3.25	3/9 (4.04)

Data: MIT Lincoln Laboratory AlphaSeq set, Engelhart et al. 2022, doi:10.1038/s41597-022-01779-4, as distributed in FLAb.